We go through one compound from patent US8569306B2, “JNK modulators” (Hoffmann-La Roche, Inc., priority 2009, dated 2013).

Protein sequences, listed by entry. Tags and fused reporters are not part of them. Lines headed by an entry give the natural chain unless they say otherwise; changes in a name come on top.
UniProt P45984: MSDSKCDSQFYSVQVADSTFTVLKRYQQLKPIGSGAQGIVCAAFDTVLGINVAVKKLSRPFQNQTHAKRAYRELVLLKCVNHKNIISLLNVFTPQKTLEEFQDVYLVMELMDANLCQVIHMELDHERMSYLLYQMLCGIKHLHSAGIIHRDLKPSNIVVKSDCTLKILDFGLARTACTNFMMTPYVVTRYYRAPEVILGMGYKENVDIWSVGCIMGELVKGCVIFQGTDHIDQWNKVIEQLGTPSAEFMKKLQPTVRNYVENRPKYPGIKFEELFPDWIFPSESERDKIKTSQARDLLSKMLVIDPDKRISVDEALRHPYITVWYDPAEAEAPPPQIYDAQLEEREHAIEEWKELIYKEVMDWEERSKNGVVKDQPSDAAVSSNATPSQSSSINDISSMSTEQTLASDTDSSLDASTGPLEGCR

This assay concerns the target Human JNK2α2 (Homo sapiens (Human), UniProt P45984). The assay can be described thus: JNK assay in vitro, phosphorylation of GST-ATF2 (19-96) with [γ-33P] ATP. The assay is classed as biochemical. Conditions: Human JNK2α2, 1 nM enzyme, 1 μM ATF2, 8 μM ATP; read-out: JNK2 − IC50. The method, then: JNK activity was measured by phosphorylation of GST-ATF2 (19-96) with [γ-^33P] ATP. The enzyme reaction was conducted at Km concentrations of ATP and the substrate at final volume of 40 μl in buffer containing 25 mM HEPES, pH 7.5, 2 mM dithiothreitol, 150 mM NaCl, 20 mM MgCl2, 0.001% Tween® 20, 0.1% BSA and 10% DMSO. Human JNK2α2 assay contains 1 nM enzyme, 1 μM ATF2, 8 μM ATP with 1 μCi [γ-^33P] ATP. Human JNK1α1 assay contains 2 nM enzyme, 1 μM ATF2, 6 μM ATP with 1 μCi [γ-^33P] ATP. Human JNK3 (Upstate Biotech #14-501M) assay contains 2 nM enzyme, 1 μM ATF2, 4 μM ATP with 1 μCi [γ-^33P] ATP. The enzyme assay was carried out in the presence or absence of several compound concentrations. JNK and compound were pre-incubated for 10 min, followed by initiation of the enzymatic reaction by adding ATP and the substrate. The reaction mixture was incubated at 30° C. for 30 min. […] The incorporation of ^33P into ATF2 was quantified on a microplate scintillation counter (Packard Topcount). Compound inhibition potency on JNK was measured by IC50 value generated from ten concentration inhibition curves fitted into the 3-parameter model: % inhibition=Maximum/(1+(IC50/[Inhibitor])^slope). Data were analyzed on Microsoft Excel for parameter estimation.

pIC50: −log10 of the molar value.

For `CC(C)(O)c1cccn2c(-c3ccnc(N[C@H]4CC[C@H](NS(C)(=O)=O)CC4)n3)cnc12` [Compound 3, N-(4-{4-[8-(1-Hydroxy-1-methyl-ethyl)-imidazo[1,2-a]pyridine-3-yl]-pyrimidin-2-ylamino}-cyclohexyl)-methanesulfonamide], the negative-log IC50 (pIC50) was 6.91.

The term pIC50 denotes the negative decadic logarithm of the IC50, by convention in mol/L.
